According to patent US9120780B2, “Indole or indazole derivative or salt thereof” (TAIHO PHARMACEUTICAL CO., LTD., priority 2011, dated 2015):

Assays:
[1] = test system: SK-BR-3 cells; test: Measurement of cell growth inhibition (crystal violet staining); type: cell-based; details: Homo sapiens, 72 hours culture with test substance
Experimental: Cell growth was measured by a crystal violet staining method. […] The cells were cultured in a 5% CO2 incubator at 37° C. for 24 hours, and then test substances were added to the plate, followed by culturing for further 72 hours. […] The plate was left to stand at room temperature for 20 minutes for staining the cells. The plate was washed with water and dried, and 100 μL of a mixed solution of 0.05 M NaH2PO4 and ethanol (mixture in equal amounts) was added to each well. The absorbance at 540 nm was measured with a microplate reader (MTP-450, Corona Electric Co., Ltd.) as an index of the number of cells in each well. The inhibition rate (%) of cell growth by a compound of the present invention was determined by the following equation using the absorbance of a drug-untreated group (control) as a control. […] Inhibition rate (%)=(C−T)/C×100 T: absorbance in a well to which a test substance was added C: absorbance in a well to which no test substance was added

[2] = molecular target: human HSP90 alpha protein (N-terminal, amino acids 2-236) (Homo sapiens (Human), UniProt P07900); test: Measurement of HSP90-binding activity (AlphaScreen competitive assay, biotin-labeled geldanamycin); details: inhibition of biotin-labeled geldanamycin binding to purified HSP90; read-out: HSP-binding activity IC50
Experimental: First, a solution of purified HSP90 was prepared as follows. […] The pET-HSP90N was introduced into Escherichia coli cells (BL21 (DE3), Stratagene Inc.), and then the Escherichia coli cells were cultured in the presence of 0.5 mM isopropyl-beta-D-thiogalactopyranoside (Sigma-Aldrich Corp.) at 37° C. for 4 hours. The Escherichia coli cells were collected, suspended in a lysis buffer (50 mM Tris-HCl (pH 7.5), 200 mM NaCl), and sonicated. The sonicated cell solution was centrifuged (40,000×g, 20 minutes) to obtain supernatant as a crude extract. The crude extract was fractionated by Ni Sepharose High Performance (GE Healthcare Japan Corporation) chromatography and HiLoad 26/60 Superdex 75 pg (GE Healthcare Japan Corporation), and the fraction in which HSP90 protein was concentrated was prepared so as to be a 50 mM Tris-HCl (pH 7.5)/20% glycerol solution as a purified HSP90 solution. […]
The HSP90-binding activity was measured by an AlphaScreen competitive assay system. […] After reaction in a dark place at room temperature for 1 hour, the fluorescence intensity in each well was measured with a multilabel plate reader, EnVision (Perkin Elmer, Inc.). The inhibition rate (%) of biotin-labeled geldanamycin binding by a compound of the present invention was determined by the following equation using the fluorescence signal of a test substance-free group (control) as a control. […]

IC50 [1]: 110 nM
IC50 [2]: 110 nM
SMILES: Cc1cc(C(N)=O)ccc1-n1nc(C(C)C)c2c(-n3cnc(-c4cnn(C)c4)c3)cccc21 [Example 8, 4-(3-Isopropyl-4-(4-(1-methyl-1H-pyrazol-4-yl)-1H-imidazol-1-yl)-1H-indazol-1-yl)-3-methylbenzamide]
